Earlier results in patent publication US6586389B1, “Cubilin protein, DNA sequences encoding cubilin and uses thereof” (Administrators of the Tulane Educational Fund, priority 1998, dated 2003).

Test system: renal brush border membrane
Conditions: cited from earlier work

Substance: β2-microglobulin: low molecular weight protein competing with light chain
- Competition with light chain for brush border membrane binding: competing
